{"sequences": {"note": "Protein sequences, listed by entry. Tags and fused reporters are not part of them. Residues count along the entry.", "UniProt P29597, 575-869 limits assumed": "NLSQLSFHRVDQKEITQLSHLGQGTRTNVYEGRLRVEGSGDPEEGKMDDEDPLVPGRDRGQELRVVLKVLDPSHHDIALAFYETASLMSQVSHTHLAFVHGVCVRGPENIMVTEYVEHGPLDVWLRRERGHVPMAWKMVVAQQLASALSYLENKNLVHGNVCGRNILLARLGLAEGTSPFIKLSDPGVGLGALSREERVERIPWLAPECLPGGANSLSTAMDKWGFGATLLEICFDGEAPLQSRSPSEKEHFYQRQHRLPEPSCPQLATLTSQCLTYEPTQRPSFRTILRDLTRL"}, "source": "patent US20260384411A1", "about": "“SALT FORM AND CRYSTAL FORM OF PYRIDINE MULTI-SUBSTITUTED COMPOUND AND PREPARATION METHOD THEREFOR” (published 2026)", "key": {"[1]": {"conditions": "Phase III, massive psoriasis; result in words; cited from earlier work"}, "[2]": {"experiment": "Solid stability test of crystal form A (XRPD)", "description": "• Instrument model: Empyrean X-ray diffractometer\nTest method: an appropriate amount of sample was evenly spreaded on a single crystal silicon sample plate and the XRPD test was performed using the following parameters.\nThe detailed XRPD parameters are as follows: • Instrument name: X-ray powder diffraction • Instrument manufacturer: Malvern Panalytical Co., Ltd. • Method parameters: • X-ray: Cu, kα, Kα1 (Å): 1.54060; Kα2 (Å): 1.54443; Kα2/Kα1 intensity ratio: 0.50 • X-ray tube settings: 45 kV, 40 mA • Divergence slit: fixed ⅛° • Anti-scatter slit: ¼° • Detector slit: P7.5 • Scan mode: Continuous • Scanning range (° 2Theta): 3-40 • Scan time per step(s): 46.665 • Scan step (° 2Theta): 0.0263 • Test time (min): 5\nAbout 1.5 g of crystal form A of the compound of formula (I) was respectively weighed, placed at the bottom of a glass sample bottle, and spread into a thin layer. The sample was completely exposed. The samples that were placed at high temperature and high humidity were sampled and tested on the 10th day and 30th day (XRPD). For illumination, the samples were placed in a clean surface dish, spread into a thin layer, and covered with a quartz glass cover, and then sampled and tested on the 5th day and 10th day (XRPD). For long-term tests and accelerated tests (dark), each sample was placed in a double-layer LDPE bag, and each layer of the LDPE bag was sealed with buckles. Then the LDPE bag was placed in an aluminum foil bag that has been added with a bag of desiccant. The aluminum foil bag was heat-sealed, and placed under 25 °C/60% RH, 30 °C/65% RH and 40 °C/75% RH conditions for inspection. The test results were compared with the initial test results of Day 0."}, "[3]": {"biological_target": "Tyk2 JH2 (His-TVMV-TYK2 JH2 (575-869)) (Homo sapiens, UniProt P29597)", "experiment": "Tyk2 JH2 enzyme activity test (HTRF, fluorescein-labeled kinase tracer, terbium-labeled His antibody)", "description": "To a buffer solution containing 20 mM of Hepes pH 7.5, 10 mM of MgCl2, 0.015% of Brij-35, 2 mM of DTT and 50 μg/mL of BSA were added 0.5 nM of TYK2 protein (His-TVMV-TYK2 JH2 (575-869)), 0.2 nM of terbium-labeled His antibody, fluorescein-labeled kinase tracer at the relevant Kα value, and the test compound. The test system was incubated at room temperature for 90 minutes. Subsequently, the generated HTRF (homogeneous time-resolved fluorescence) signal, i.e., the ratio of the fluorescence intensity of the fluorescein acceptor (520 nm) and the terbium donor (495 nm) at the emission wavelength, was measured on an Envision plate reader, and the IC50 value was calculated based on this."}, "[4]": {"test_system": "IFNα-stimulated phosphorylated STAT1 (human peripheral blood mononuclear cells)", "experiment": "IFNα-stimulated phosphorylation STAT1 assay in hPBMC (CD4+ T cells, flow cytometry)", "conditions": "result in words", "description": "Human peripheral blood mononuclear cells (hPBMC) were seeded at a cell density of 1×10^5 cells/well and placed in an incubator at 37 °C for 90 minutes. Then different concentrations of compounds were added to the cells, wherein the concentration range of each compound started from 2 μM, which was serially diluted 5-fold to obtain a total of 8 concentration gradients. The compounds and cells were incubated at 37 °C for 30 minutes. hPBMC were stimulated with IFN-α (1000 U/ml), and then the level of phosphorylated STAT1 in CD4+ T cells was detected by flow cytometry to evaluate the inhibitory activity of the compound on the IFN-α pathway. The results of the in vitro cell activity assay of the free base of the compound of the present disclosure are shown in Table 4: […]"}}}
{"smiles": "CNC(=O)c1nnc(NC(=O)C2CC2)cc1Nc1cccc(-c2ncn(C)n2)c1OC", "values": [{"measurement": "safety", "setting": "[1]", "value": "good safety"}]}
{"smiles": "Cl.[2H]C([2H])([2H])CC(=O)c1cnc(NC(=O)C2CC2)cc1Nc1cccc(-c2cnc(N=S(C)(C)=O)cn2)c1OC", "values": [{"measurement": "Crystal form", "setting": "[2]; 25 °C/60% RH, 3 M", "value": "form A"}, {"measurement": "Crystal form", "setting": "[2]; 25 °C/60% RH, 6 M", "value": "form A"}, {"measurement": "Crystal form", "setting": "[2]; 30 °C/65% RH, 1 M", "value": "form A"}, {"measurement": "Crystal form", "setting": "[2]; 30 °C/65% RH, 3 M", "value": "form A"}, {"measurement": "Crystal form", "setting": "[2]; 30 °C/65% RH, 6 M", "value": "form A"}, {"measurement": "Crystal form", "setting": "[2]; 40 °C/75% RH, 1 M", "value": "form A"}, {"measurement": "Crystal form", "setting": "[2]; 40 °C/75% RH, 3 M", "value": "form A"}, {"measurement": "Crystal form", "setting": "[2]; 40 °C/75% RH, 6 M", "value": "form A"}, {"measurement": "Crystal form", "setting": "[2]; Day 0 (initial)", "value": "form A"}, {"measurement": "Crystal form", "setting": "[2]; High humidity (25 °C/relative humidity 92.5%), Day 10", "value": "form A"}, {"measurement": "Crystal form", "setting": "[2]; High humidity (25 °C/relative humidity 92.5%), Day 30", "value": "form A"}, {"measurement": "Crystal form", "setting": "[2]; High temperature (60 °C), Day 10", "value": "form A"}, {"measurement": "Crystal form", "setting": "[2]; High temperature (60 °C), Day 30", "value": "form A"}, {"measurement": "Crystal form", "setting": "[2]; Strong illumination (5000 lx and UV intensity 90 w/cm^2, open), Day 5", "value": "form A"}, {"measurement": "Crystal form", "setting": "[2]; Strong illumination (5000 lx and UV intensity 90 w/cm^2, open), Day 10", "value": "form A"}, {"measurement": "stability (conclusion)", "setting": "[2]; high temperature, high humidity, strong illumination, long-term accelerated test conditions, result in words", "value": "good stability"}]}
{"smiles": "[2H]C([2H])([2H])CC(=O)c1cnc(NC(=O)C2CC2)cc1Nc1cccc(-c2cnc(N=S(C)(C)=O)cn2)c1OC", "values": [{"measurement": "IC50", "setting": "[3]; read-out: Tyk2 JH2 IC50, room temperature, 90 minutes incubation, 0.5 nM TYK2 protein", "value": 0.04, "unit": "nM"}, {"measurement": "inhibitory activity against Tyk2 JH2 (conclusion)", "setting": "[3]; result in words", "value": "strong inhibitory activity"}, {"measurement": "Tyk2-related cellular activity on IFNα-stimulated phosphorylated STAT1 (conclusion)", "setting": "[4]", "value": "strong Tyk2-related cellular activity"}]}
